Assay results published in ChEMBL document CHEMBL4808210, “Mapping Chromone-3-Phenylcarboxamide Pharmacophore: Quid Est Veritas?” (J Med Chem, 2021).

Chains of the proteins cited; added tags and fusions are not shown.
UniProt P27338, whole entry: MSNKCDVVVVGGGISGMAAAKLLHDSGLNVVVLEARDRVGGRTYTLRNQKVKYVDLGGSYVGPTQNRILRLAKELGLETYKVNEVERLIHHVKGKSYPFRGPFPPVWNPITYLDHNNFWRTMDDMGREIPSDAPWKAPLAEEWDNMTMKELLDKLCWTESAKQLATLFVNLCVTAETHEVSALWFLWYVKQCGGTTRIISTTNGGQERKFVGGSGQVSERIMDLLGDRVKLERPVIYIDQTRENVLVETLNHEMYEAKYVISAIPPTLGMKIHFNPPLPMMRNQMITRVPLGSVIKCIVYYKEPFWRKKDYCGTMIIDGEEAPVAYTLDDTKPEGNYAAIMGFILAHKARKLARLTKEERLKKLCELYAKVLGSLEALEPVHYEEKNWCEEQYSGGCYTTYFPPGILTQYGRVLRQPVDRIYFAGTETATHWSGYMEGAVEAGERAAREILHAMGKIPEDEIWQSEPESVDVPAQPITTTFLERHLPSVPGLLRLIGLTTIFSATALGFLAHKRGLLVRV

Target: Amine oxidase [flavin-containing] B (Homo sapiens, UniProt P27338)
Assay: Inhibition of recombinant human MAO-B expressed in baculovirus infected BTI-TN- 5B1-4 insect cells using kynuramine as substrate preincubated for 10 mins in presence of substrate followed by enzyme addition and measured every minute for 30 mins by spectrophotometry analysis
Assay type: cell-based

## Cc1ccc(NC(=O)c2cc3ccccc3oc2=O)cc1C
  pIC50: 7.73

pIC50: −log10 of the molar value.
